Assay: Platinum release from PBS
Type: physicochemical
Settings: 37° C.
Protocol: The percent of small platinum species released over time was measured by dissolving about 30 mg of the polymer-platinum conjugate in 15 mL of phosphate buffered saline (10 mM phosphate, 123 mM Cl^−) and incubating the solution at 37° C. in a water bath. At indicated times, 2.0 mL aliquots were transferred to a centrifugal filter with a 3 kDa nominal molecular weight cutoff (Centricon YM-3 from Millipore) and spun until >1.5 mL of filtrate had accumulated. The timed filtrates and the original solution were analyzed for platinum by ICP-OES. The percent of small Pt species released was determined using the formula: ((ppm Pt in filtrate)/(ppm Pt in stock solution))×100.

poly(HPMA)-GFLG-Ama=Pt=DACH, N,O—Pt chelate [Example 6]
Pt release in PBS (3 hours): 2.0%
Pt release in PBS (24 hours): 2.1%
